## Apparent affinities of Ab-14 variants for a coronavirus HR2 peptide

From the AlphaSeq antibody data of Engelhart et al. 2022 (doi:10.1038/s41597-022-01779-4), copy in the FLAb collection.

All variants were tested on one target, the spike HR2 peptide PDVDLGDISGINAS (SARS-CoV-2).

Each scFv is VH, a (GGGGS)3 linker, VL, as in the parent Ab-14, and differs from it in the CDRs of the heavy chain only.
VH: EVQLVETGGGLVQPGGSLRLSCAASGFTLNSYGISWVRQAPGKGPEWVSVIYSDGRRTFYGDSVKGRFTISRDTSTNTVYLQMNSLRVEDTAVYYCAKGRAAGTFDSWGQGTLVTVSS
VL: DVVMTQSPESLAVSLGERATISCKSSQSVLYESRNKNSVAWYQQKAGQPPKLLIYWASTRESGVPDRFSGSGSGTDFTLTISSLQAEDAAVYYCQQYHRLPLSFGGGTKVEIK

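Variants in AAYL49 differ from the parent at up to three CDR positions; double and triple changes were sampled at random. Affinity was read by AlphaSeq, a pooled yeast mating assay with surface-displayed partners. Mating (16 h, 30 °C) was followed by selection of diploids and sequencing of their barcodes. Scores were corrected for input abundance and mapped to Kd with protein pairs of known affinity run in the same pool. The assay was run in three technical replicates.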

Variants are written as CDR1, CDR2 and CDR3 of the heavy chain (limits as in the source). Parent: GFTLNSYGIS, VIYSDGRRTFYGDSVK, GRAAGTFDS.
The read-out is the apparent dissociation constant on a log10 scale (nM): the lower, the stronger.
Replicates are averaged; those with no signal do not enter the mean.
A pair that was not seen in any replicate is written "nd"; this usually means weak binding, but a binder can also be missed.
The list is sorted by this average, lowest first, undetected variants last.

GFTLTSYGIS, VIYSDGRRTFYGDSAK, GRNAGTFDS: 1.21 (3 of 3 replicates).
GFCLNSYGIS, VIYSDGRRTFYGDSVK, GMAAGTIDS: 1.60 (3 of 3 replicates).
GFTLNSYGIS, VIYSDGRRTFYGDSVK, GRHAGTFIF: 1.88 (3 of 3 replicates).
GFTLNMYGIS, VIYSDGRRTFYGDSVK, GRYGGTFDS: 1.90 (3 of 3 replicates).
LFTLNSYGIW, VIYSDGRRTMYGDSVK, GRAAGTFDS: 2.01 (1 of 3 replicates).
GFTLNSNGIS, VIYSDGRRTFYMDSVK, GRVAGTFDS: 2.06 (3 of 3 replicates).
GNTTNKYGIS, VIYSDGRRTFYGDSVK, GRAAGTFDS: 2.83 (1 of 3 replicates).
GFTLNSYGIS, VIYSDGMRTFYGDSPK, GRSAGTFDS: 2.87 (1 of 3 replicates).
GFTFNSHGIS, VIYSDGRRTFYGDSVK, GRAAGTFDS: 2.95 (2 of 3 replicates).
GFTLNSYEIS, VIYSDGRRTFYGDSVK, GRMAGTMDS: 3.17 (3 of 3 replicates).
GFTLNSENIS, VIYSDGRRTFYGDSVK, GRAAPTFDS: 3.34 (1 of 3 replicates).
GFTLNSKGIS, VIYSDGRRFFYGDSVK, PRAAGTFDS: 3.36 (2 of 3 replicates).
MFTLNSYGIS, VIYSDGRRTFYPDSFK, GRAAGTFDS: 3.36 (1 of 3 replicates).
GFTLNSYGIS, VFYSDGRRNFYGDSVK, GRAAGTFDS: 3.48 (1 of 3 replicates).
GFTLNSYGIS, VIISDGRRTFYGDSVK, GRAKGTFDS: 3.60 (1 of 3 replicates).
GFTLNSYGIS, VIYSDGRRTFYGDSGK, GRAAGTSDS: 3.73 (1 of 3 replicates).
GFLLNSYGIS, YIYSFGRRTFYGDSVK, GRAAGTFDS: 3.82 (2 of 3 replicates).
GFTLNSYGIS, VLYSDGRRTFYGDSVK, GRLAGYFDS: 4.08 (1 of 3 replicates).
GFFLNSYGIS, VIYSDGRRTFYGDSYC, GRAAGTFDS: 4.21 (1 of 3 replicates).
GFTLISYGIS, VIYSDGRWTFYGDSVK, GRAAGTQDS: 4.41 (1 of 3 replicates).
GFTLNSYGIS, VIYSDGRKRFYGDSVK, GRAAETFDS: 4.42 (2 of 3 replicates).
GFTLNSYGIS, VIYSDGRRTFYGDSVL, GFAAGTFSS: 4.70 (1 of 3 replicates).
GFTLNSYGIS, VPYSDGRHTFYGDSVK, GLAAGTFDS: 4.96 (2 of 3 replicates).
GFTLNSYGIS, VIYSDGRRTFYPDSEK, GGAAGTFDS: 5.09 (2 of 3 replicates).
WFTLNSYGIS, VWYSDDRRTFYGDSVK, GRAAGTFDS: 5.11 (2 of 3 replicates).

Second part, the sequence after the result:

5.21 (1 of 3 replicates): GFTLNRYGIS, VIYSDGRRTFRGDSVK, GRAAGTFDL.
nd (0 of 3 replicates): GFTLNGYGID, VIYSDGMRTFYGDSVK, GRAAGTFDS.
nd (0 of 3 replicates): GFTLNSYWIS, VIGSDGRRTFYGDSDK, GRAAGTFDS.
nd (0 of 3 replicates): GKTSNSYGIS, VIYSDGRRTFYGDSVK, GRAAGTFKS.
nd (0 of 3 replicates): GHTLNSYGIS, VIYSDGRRLFYGDSVK, GRAMGTFDS.
nd (0 of 3 replicates): GFTLNSYGIH, VIYSDGRKTFYGDSVK, QRAAGTFDS.
nd (0 of 3 replicates): GFTYNSYGIS, VQYSDGRRTGYGDSVK, GRAAGTFDS.
nd (0 of 3 replicates): GFTLNSYGGS, VIYSIPRRTFYGDSVK, GRAAGTFDS.
nd (0 of 3 replicates): GFTLNSYGIS, VIYSDTRRTFYGDSVK, GRLAGTFDS.
nd (0 of 3 replicates): GFTLNSYGIS, VIYSDDRWTFYGDSVS, GRAAGTFDS.
nd (0 of 3 replicates): GFTLNSYGIS, SIYSDIRDTFYGDSVK, GRAAGTFDS.
nd (0 of 3 replicates): MFTLNSYGIS, VIYSDGRWTFYGDSVK, GRAPGTFDS.
nd (0 of 3 replicates): GFTLNSYGIS, VPYSDGRRTFYKDSVK, GRAAGTFNS.
nd (0 of 3 replicates): GFTLNSYGIS, VIYSDRRRTGYGDSVK, GRAAGTFDS.
nd (0 of 3 replicates): GFMLNSYGIS, VIYSDTRRTFYGDSVK, GRAAGTFDS.
nd (0 of 3 replicates): GFTLNSYGIS, VIYSDFRRTFYGDSVK, GFAEGTFDS.
nd (0 of 3 replicates): GFTLNSYGIS, EIYSDGRRTFYGDSVQ, GRAAGQFDS.
nd (0 of 3 replicates): GATPNSYGIS, VIYMDGRRTFYGDSVK, GRAAGTFDS.
nd (0 of 3 replicates): GFTLNSYGIS, VIYSYGRRTFYGDSGK, GRAAETFDS.
nd (0 of 3 replicates): GFTLNSYGIV, VYYSDGRRTFYGDSWK, GRAAGTFDS.
nd (0 of 3 replicates): GFTLNSYMIS, VIYIDGRRTFYGDSVK, GRAAGTFDA.
nd (0 of 3 replicates): VFTLNSYGIS, VIYFDGRRTFYGDSVP, GRAAGTFDS.
nd (0 of 3 replicates): GFTLNNYGIS, PAYSDGRRTFYGDSVK, GRAAGTFDS.
nd (0 of 3 replicates): GFTLNSYGIS, VIYSDGRRTGYGDSHK, KRAAGTFDS.
nd (0 of 3 replicates): GFTQNSYGIS, VIYSDGRRDFYGDSKK, GRAAGTFDS.

Top 5 of the variants detected in all replicates, tightest first:

| CDR-H1 | CDR-H2 | CDR-H3 | mean log10 Kd (nM) | seen in |
|---|---|---|---|---|
| GFTLTSYGIS | VIYSDGRRTFYGDSAK | GRNAGTFDS | 1.21 | 3/3 |
| GFCLNSYGIS | VIYSDGRRTFYGDSVK | GMAAGTIDS | 1.60 | 3/3 |
| GFTLNSYGIS | VIYSDGRRTFYGDSVK | GRHAGTFIF | 1.88 | 3/3 |
| GFTLNMYGIS | VIYSDGRRTFYGDSVK | GRYGGTFDS | 1.90 | 3/3 |
| GFTLNSNGIS | VIYSDGRRTFYMDSVK | GRVAGTFDS | 2.06 | 3/3 |

Parent in this assay: reference entry 0.65, copy in this library 4.11 (one replicate of three).
Empty control strains, which show no peptide, gave a signal in 15% of pairings with library AAYL49; the median was 4.06 and 95% of these signals were weaker than 2.83. No background was subtracted.